Data taken from publication PMC4490394 (Scientific Reports, 2015).
Where “and” joins values, the source holds several entries; their conditions need not be identical. Identical values can stand only once.

How the values were obtained:
human AR (hAR) = human AR (hAR) (Homo sapiens, UniProt P10275); assay: cell-based
AR(T877A) = AR(T877A) (Homo sapiens, UniProt P10275, T878A); assay: cell-based
[1] = target: T1, wtAR isolated from rat ventral prostates (Rattus norvegicus, UniProt P15207); assay: biochemical; conditions: inhibition constant (Ki), AR binding, competition with 1 nM [3H]mibolerone, rat ventral prostate cytosol, overnight, 0–4 °C
T1 sequence (P15207 1-902): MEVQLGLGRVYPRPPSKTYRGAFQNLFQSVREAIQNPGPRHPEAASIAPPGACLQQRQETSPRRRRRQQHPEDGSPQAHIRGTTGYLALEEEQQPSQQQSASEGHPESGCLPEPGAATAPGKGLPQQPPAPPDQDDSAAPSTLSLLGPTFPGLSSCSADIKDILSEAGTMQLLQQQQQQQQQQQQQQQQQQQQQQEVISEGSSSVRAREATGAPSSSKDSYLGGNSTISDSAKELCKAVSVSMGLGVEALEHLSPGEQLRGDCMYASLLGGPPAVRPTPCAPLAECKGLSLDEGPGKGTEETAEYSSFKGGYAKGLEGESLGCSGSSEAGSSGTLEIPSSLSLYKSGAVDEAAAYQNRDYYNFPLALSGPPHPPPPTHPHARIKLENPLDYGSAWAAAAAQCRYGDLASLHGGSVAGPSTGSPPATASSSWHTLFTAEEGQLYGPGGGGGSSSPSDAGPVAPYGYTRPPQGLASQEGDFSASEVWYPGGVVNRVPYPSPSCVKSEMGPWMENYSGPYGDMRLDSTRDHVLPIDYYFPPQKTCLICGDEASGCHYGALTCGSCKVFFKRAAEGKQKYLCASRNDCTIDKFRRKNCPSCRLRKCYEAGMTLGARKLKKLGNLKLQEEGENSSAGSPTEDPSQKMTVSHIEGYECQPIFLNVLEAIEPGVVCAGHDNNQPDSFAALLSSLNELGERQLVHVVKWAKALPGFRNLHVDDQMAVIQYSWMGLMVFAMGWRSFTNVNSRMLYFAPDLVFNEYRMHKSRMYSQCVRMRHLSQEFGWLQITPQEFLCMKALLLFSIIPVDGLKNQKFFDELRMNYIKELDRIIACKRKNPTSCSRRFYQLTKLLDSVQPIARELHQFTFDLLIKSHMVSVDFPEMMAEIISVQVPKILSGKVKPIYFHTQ

[2] = tested on: AR nuclear translocation in HS-HEK293 cells; conditions: 0.3 or 1.0 μM test compound with 0.3 nM testosterone

Structure (SMILES)	IC50 (human AR (hAR)) [nM]	IC50 (AR(T877A)) [nM]	Ki [1]	effect on testosterone-induced nuclear translocation of AR [2]
CC(=O)c1cc(C(=O)N[C@@H](C)Cn2ccc(-c3ccc(C#N)c(Cl)c3)n2)[nH]n1 [ORM-15341]	38	700	8 nM and 8.4 nM	–
CNC(=O)c1ccc(N2C(=S)N(c3cnc(C#N)c(C(F)(F)F)c3)C(=O)C23CCC3)cc1F [ARN-509, reference compound]	–	–	93 nM	inhibit
